Patent US20110039825A1, “LIGANDS OF ALPHA-ADRENOCEPTORS, DOPAMINE, HISTAMINE, IMIDAZOLINE AND SEROTONIN RECEPTORS AND THEIR USE” (Alla Chem, LLC, priority 2007, published 2011)

Chains of the proteins cited; added tags and fusions are not shown.
UniProt P35367, whole entry: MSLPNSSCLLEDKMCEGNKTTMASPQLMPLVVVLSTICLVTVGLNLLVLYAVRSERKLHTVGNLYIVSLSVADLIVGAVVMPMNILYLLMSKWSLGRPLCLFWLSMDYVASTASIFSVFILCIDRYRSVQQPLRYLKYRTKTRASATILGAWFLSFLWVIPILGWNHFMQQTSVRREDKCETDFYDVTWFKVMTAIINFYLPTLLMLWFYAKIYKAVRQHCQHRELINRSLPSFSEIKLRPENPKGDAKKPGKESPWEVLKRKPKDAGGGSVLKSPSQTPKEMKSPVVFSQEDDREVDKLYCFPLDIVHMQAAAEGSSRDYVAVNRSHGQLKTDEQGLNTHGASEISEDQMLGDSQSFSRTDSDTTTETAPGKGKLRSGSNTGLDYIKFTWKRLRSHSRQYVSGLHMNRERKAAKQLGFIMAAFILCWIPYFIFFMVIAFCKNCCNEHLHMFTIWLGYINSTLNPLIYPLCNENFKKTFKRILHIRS

Target: T1, human H1 receptor (Homo sapiens, UniProt P35367)
T1 construct: expressed in transfected cells; host or cells: CHO-K1
Assay: radioligand binding to histamine receptor H1 ([3H] Pyrilamine)
Source text: Biochem Biophys Res Comm. 197(3): 1601-1608, 1993]. […] Biochem Biophys Res Comm. 197(3): 1601-1608, 1993].
Pyrilamine is used as positive control.

How did the IC50 turn out when `Cc1ccc2c(c1)c1c(n2CCc2ccccc2)CCN(C)C1.Cl` [1.1.2(1-2)•HCl, 2,8-dimethyl-5-phenethyl-1,2,3,4-tetrahydro-1H-pyrido[4,3-b]indole hydrochloride] was run?
The IC50 was under 10 nM.

And the “Histamine receptor H1, % inhibition” value (10 μM ligand)?
Its value is 104%.
